Screens as filed in PubChem BioAssay.
miR-21 reporter = miR-21 reporter, rising signal; HeLa miR-21 FLuc reporter, luciferase, 48 h; Potency, µM (titrated, usually from 38.3 µM), for the others: at the top dose reporter change, positive = more light; 340,000 tested, under 10 active; AID 2288; active = well fitted rising curve with a large enough effect; inconclusive = small, poorly fitted or top-dose-only effect; inactive = no such curve, though single readings can be large or run the other way;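 also: % of control where 0% means no effect; miR-21 action dims this reporter so a rising signal means less miR-21 action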
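HeLa cells stably expressing CMV-driven firefly luciferase with a downstream miR-21 binding sequence, endogenously expressing miR-21, were treated with titrations (up to about 40uM final) for 48 hours at 37 degree Celsius. Luciferase luminescence was read after lysis.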
GRP78 ERSR act = inducers of ER stress response in human glioma cells; U87-MG GRP78 promoter luciferase reporter, 16 h; Potency, µM, for the others: at the highest dose activation, hits mostly activators; 420,000 compounds, 0.02% hits; AID 602332; note: potency is the fitted concentration of half-maximal effect; series mostly up to about 76 µM; % of control where 0% means no effect; nearly all actives have a fitted effect of over 35% in size
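Stably transfected U87-MG glioma cells carrying a GRP78-based luciferase sensor; 16 h compound incubation. Luminescence end-point read 10 min after Bright-Glo addition at room temperature.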
Nrf2 inh = inhibitors of Nrf2 signaling. 360,000 compounds, 2.1% hits. Potency, µM (series often up to 46 µM), for the others: at the top dose activity change, negative = inhibition, hits mostly inhibitors. A549 ARE-Fluc reporter, luciferase luminescence, 18-24 h; note: potency is the fitted concentration of half-maximal effect; % is set by controls: 0 for no effect and ±100 for the full control effect; nearly all actives have a fitted effect of over 60% in size
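In this cell-based qHTS, ARE-driven firefly luciferase in A549 cells reports Nrf2 activity; the luminescent signal after BugLite lysis is the measured value, with a prior CellTiter-Fluor read for cell health.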
Nrf2 ARE act = activators of Nrf2 (ARE) signaling. AREc32 ARE-luciferase reporter (MCF7-derived line), luminescence, 24 h. AID 624171. Potency, µM (titrated, usually from 46.1 µM), for the others: at the top dose activation, most hits filed as activators. 410,000 compounds, 0.31% hits; note: potency is the fitted concentration of half-maximal effect; % of control where 0% means no effect; nearly all actives have a fitted effect of over 65% in size
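AREc32 cells carrying an ARE-driven firefly luciferase reporter were seeded at 1000 cells/well in OPTI-MEM with 5% FBS, then exposed to compound for 24 hr at 37 deg C. Luminescence was read with Steady-Glo after 30 min at RT.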
TSG101-PTAP inh = blocks PTAP/TSG101 interaction to inhibit HIV-1 budding; Potency, µM (doses to about 115 µM), for the others: top-dose activity change, negative = inhibition, actives largely listed as inhibitors; 340,000 tested, under 10 active; AID 493005; Fluorescence polarization, FITC-PTAP peptide / Tsg101 binding; active = well fitted inhibition curve with a large enough effect in the main read-out, with a control signal flat, not every such curve was filed as active; inconclusive = small, poorly fitted or top-dose-only effect, or effect the other way, or a change in a side signal; inactive = no such curve, though single readings can be large or run the other way; note: potency is the fitted concentration of half-maximal effect; % of control where 0% means no effect
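Fluorescence polarization binding of Tsg101 binding domain (10 uM final) to FITC-labeled PTAP peptide (50 nM final) in HEPES pH 7.5 buffer with NaCl, Tween 20, EDTA, TCEP. Compounds added before peptide; binding 20 min at RT.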
A549 viability = A549 cytotoxicity, counter-screen for Nrf2 inhibitors | A549 ARE-Fluc cells, CellTiter-Fluor viability, 18-24 h | Potency, µM (titrated, usually from 46 µM), for inactives: at the highest dose activity change, negative = cytotoxicity, actives largely listed as inhibitors | 390,000 compounds, 0.16% hits | AID 504648; note: potency is the fitted concentration of half-maximal effect; % is set by controls: 0 for no effect and ±100 for the full control effect
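A549 ARE-Fluc cells in 5% FBS OPTI-MEM, 5000 cells/well, rested 2 h then exposed to compounds in concentration-response for 18-24 h at 37 °C. Viability by CellTiter-Fluor fluorescence (Ex 405/Em 525) after 30 min; luciferase luminescence (BugLite, 15 min, RT) read afterwards.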
* = called active by the depositor; ? = inconclusive; nt = no result. Sampled rows, rich in hits. Any-hit rate of the full collection: about 2.1%. Unless noted, calls come from the whole dose curve; as a rule, active = well fitted curve in the direction sought with a large enough effect; inconclusive = small, poorly fitted or top-dose-only effect, or another doubt; inactive = no such curve, though single readings can be large; an effect the other way counts as inactive or inconclusive.

Values run as follows: GRP78 ERSR act, TSG101-PTAP inh, miR-21 reporter, A549 viability, Nrf2 ARE act, Nrf2 inh
- CN(C)c1ccc(/C=C/c2ccnc3ccc(F)cc23)cc1
  -8.8%, nt, nt, nt, nt, nt
- CN(CC(=O)Nc1c(Cl)cccc1Cl)C(=O)c1ccccc1SCC(=O)N1CCCC1
  -3.9%, -0.2%, -2.0%, 11.1%, 0.0%, 3.6%
- CN(CCOc1ccc(Cl)cc1)C(=O)c1ccccc1SCC(=O)N1CCCC1
  -2.5%, 0.7%, nt, -15.2%, -0.2%, 13µM*
- Cc1cc(C)cc(NC(=O)N2CCC(C(=O)c3ccc(F)cc3)CC2)c1
  -2.1%, -0.6%, 9.2%, -15.2%, -0.5%, 14.6µM*
- CSc1ccc(NC(=O)N2CCC(C(=O)c3ccc(F)cc3)CC2)cc1
  0.0%, -0.9%, 9.7%, -8.2%, 2.2%, 16.4µM*
- COc1ccc(NC(=O)N2CCC(C(=O)c3ccc(F)cc3)CC2)cc1
  -2.9%, -7.2%, -15.0%, 10.2%, -0.3%, -15.2%
- CCOC(=O)Nc1ccc2c(CNC(C)c3ccccc3OC)cc(=O)oc2c1 (stereo not given)
  -3.5%, 0.5%, -1.0%, ?, 4.0%, 13µM*
- CCOC(=O)Nc1ccc2c(CN3C(=O)NC(CC)(CC)C3=O)cc(=O)oc2c1
  3.3%, -6.4%, -34.8%, -1.0%, 0.0%, 14.8%
- O=S(=O)(Nc1c(Br)cc(Br)c2cccnc12)C1CC1
  -4.0%, nt, nt, -2.6%, nt, 0.5%
- CCOC(=O)c1cnc(SCC(=O)Nc2sc(C)c(C)c2C#N)nc1N
  -5.1%, -6.5%, -1.8%, ?, 2.2%, 9.2µM*
- N#Cc1cc(C(=O)c2ccccc2O)cn(-c2nccs2)c1=O
  1.5%, ?, 4.6%, 0.0%, 22.4µM*, -1.7%
- Cc1cc(NC(=O)c2ccccc2)c(Cl)cc1N
  -13.1%, -9.5%, 13.1%, 0.9%, -3.0%, 8.2µM*
- O=S(=O)(c1ccc2c(c1)OCCO2)N1CCN(S(=O)(=O)c2c(Cl)cc(C(F)(F)F)cc2Cl)CC1
  nt, nt, nt, -5.8%, nt, -5.2%
- COc1ccc(Br)cc1CN(C)CC(=O)Nc1c(Cl)ccc(C)c1Cl
  -6.8%, -3.9%, -10.1%, ?, 3.2%, 18.4µM*
- COc1ccc(Br)cc1CN(C)CC(=O)NCCc1ccccc1
  -2.3%, 1.9%, -1.7%, -0.6%, -0.1%, 2.0%
- COc1ccc(CN2CCN(S(=O)(=O)c3ccc(NC(C)=O)cc3)CC2)cc1
  -5.8%, -1.7%, 21.6%, -12.3%, -1.0%, 16.4µM*
- COc1ccc(-n2nnnc2C2CCN(S(=O)(=O)c3ccc(NC(C)=O)cc3)CC2)cc1
  -3.1%, nt, ?, -19.9%, -0.6%, 9.2µM*
- O=c1[nH]c(=S)[nH]c2n[nH]nc12
  -2.6%, nt, nt, nt, nt, nt
- Cc1c(C(=O)N(Cc2cccc(F)c2)C2CCS(=O)(=O)C2)oc2cc(Br)ccc12 (stereo not given)
  0.4%, nt, -2.1%, -19.8%, 0.9%, 13µM*
- CCN(CC)c1ccc(NC(=O)Cn2cc3c(n2)CCC(C)C3)c(C)c1 (stereo not given)
  -1.8%, -0.1%, 6.8%, -18.6%, 1.1%, 13µM*
- CCN(CC)c1ccc(NC(=O)CN2C(=O)CSc3ncccc32)c(C)c1
  -5.7%, 0.0%, 0.0%, -4.2%, -0.5%, 10.3µM*
- CNC(=O)CN1C(=O)CSc2ncccc21
  1.3%, -2.5%, -1.0%, -1.9%, 0.3%, 7.6%
- COc1cccc(N2CCN(C(=O)Cn3cnc4onc(-c5ccc(F)cc5)c4c3=O)CC2)c1
  -2.7%, nt, -2.6%, 3.4%, 2.0%, 16.4µM*
- COc1ccc(OC)c(CC2C(=O)Nc3ccc(Br)cc32)c1 (stereo not given)
  -2.9%, nt, ?, 0.0%, -1.0%, 23.1µM*
- COc1ccccc1/C=C/c1cncc(/C=C/c2ccccc2OC)c1
  -2.5%, nt, nt, nt, nt, nt
- C=CCn1c(SCc2csc(C)n2)nc2sc3c(c2c1=O)CCCC3
  -1.2%, -0.3%, 13.9%, -13.7%, -0.1%, 25.9µM*
- CC1=NNC(=O)/C1=C\c1cn(-c2ccccc2)nc1-c1ccc(Cl)cc1
  -14.8%, -2.7%, -29.1%, 20.6µM*, ?, 13µM*

An excerpt from above in order of molar mass, highest first.
Values run as follows: GRP78 ERSR act, TSG101-PTAP inh, miR-21 reporter, A549 viability, Nrf2 ARE act, Nrf2 inh
- COc1cccc(N2CCN(C(=O)Cn3cnc4onc(-c5ccc(F)cc5)c4c3=O)CC2)c1
  -2.7%, nt, -2.6%, 3.4%, 2.0%, 16.4µM*
- CCN(CC)c1ccc(NC(=O)CN2C(=O)CSc3ncccc32)c(C)c1
  -5.7%, 0.0%, 0.0%, -4.2%, -0.5%, 10.3µM*
- CC1=NNC(=O)/C1=C\c1cn(-c2ccccc2)nc1-c1ccc(Cl)cc1
  -14.8%, -2.7%, -29.1%, 20.6µM*, ?, 13µM*
- COc1ccccc1/C=C/c1cncc(/C=C/c2ccccc2OC)c1
  -2.5%, nt, nt, nt, nt, nt
